The values that follow come from patent US20080090771A1, “ABUSE-RESISTANT H[…], COMPOSITIONS AND METHODS OF USING THE SAME” (SHIRE LLC, priority 2006, published 2008).

A short description of data set [1]: Intranasal bioavailability of hydrocodone conjugates in rats. To be noted: relative to hydrocodone.
Data set [2] in a line: Oral bioavailability of hydrocodone conjugates in rats. The note with it: for bioavailability (% HC) oral AUC / bioavailability (% HC) oral Cmax: rats, relative to hydrocodone; for Oral:IN Index AUC: ratio of oral to intranasal AUC (% HC); for Oral:IN Index Cmax: ratio of oral to intranasal Cmax (% HC).

Consider “Gly-Gly-Leu-Hydrocodone [Gly-Gly-Leu-HC]”, for which, in data set [1], the “bioavailability (% HC) IN AUC” value amounted to 77 % HC and the “bioavailability (% HC) IN Cmax” value was found to be 62 % HC. For the same substance, in data set [2], the “bioavailability (% HC) oral AUC” value was determined as 82 % HC, the “bioavailability (% HC) oral Cmax” value was 126 % HC, the “Oral:IN Index AUC” value is on record as 1.06 and the “Oral:IN Index Cmax” value was 2.03.
Turning to “(d)-Lys-(1)-Lys-Ile-Hydrocodone [(d)Lys(I)Lys-Ile-HC]”, in data set [1], the “bioavailability (% HC) IN AUC” value amounted to 41 % HC and the “bioavailability (% HC) IN Cmax” value came to 54 % HC. In data set [2], the “bioavailability (% HC) oral AUC” value was found to be 141 % HC, the “bioavailability (% HC) oral Cmax” value stood at 174 % HC, the “Oral:IN Index AUC” value stood at 3.44 and the “Oral:IN Index Cmax” value is listed as 3.22.
